Chains of the proteins cited; added tags and fusions are not shown. Lines headed by an entry give the natural chain unless they say otherwise; changes in a name come on top.
UniProt P01889: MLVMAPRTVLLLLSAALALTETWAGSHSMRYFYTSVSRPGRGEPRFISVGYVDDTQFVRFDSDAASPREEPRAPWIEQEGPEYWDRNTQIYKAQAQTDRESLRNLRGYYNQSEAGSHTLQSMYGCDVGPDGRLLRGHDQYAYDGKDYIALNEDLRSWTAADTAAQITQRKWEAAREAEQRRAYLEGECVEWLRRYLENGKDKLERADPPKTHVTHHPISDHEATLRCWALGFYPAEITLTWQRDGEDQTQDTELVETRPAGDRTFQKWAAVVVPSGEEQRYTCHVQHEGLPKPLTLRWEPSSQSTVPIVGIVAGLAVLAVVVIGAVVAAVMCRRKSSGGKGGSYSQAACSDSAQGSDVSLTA

In US20060079453A1, “Hla binding peptides and their uses” (priority 2002, published 2006):

How the values were obtained:
HLA-B*4501 = HLA-B*4501 (Homo sapiens, UniProt P01889, A329T/A65T/A93T/A95T/C349S/D138N/D201E/D98Y/E176V/E187L/E204Q/E69K/H137Y/K202T/L119W/N87E/Q56L/Q94N/R155S/R180D/S121R/S35A/S48T/V127L/V306I/V36M/W191S/Y140L/Y33H/Y91S); test: biochemical; assay type: binding
HLA-B*4402 = HLA-B*4402 (Homo sapiens, UniProt P01889, A223V/A65T/A93T/A95T/D201E/D98Y/E176V/E187L/E204Q/E69K/G107R/H137Y/K202T/L105A/L119I/N104T/N87E/Q56L/Q94N/R106L/R155S/R180D/S101N/S121R/S35A/S48T/T118I/V36M/W191S/Y140D/Y91S); test: biochemical; assay type: binding; conditions: B*4402

Compound	IC50 (HLA-B*4501; B*4501) [µM]	IC50 (HLA-B*4402) [µM]	IC50 (HLA-B*4501; read-out: B*4501) [µM]
CC(C)C[C@H](NC(=O)[C@H](Cc1ccc(O)cc1)NC(=O)[C@@H](NC(=O)[C@H](C)NC(=O)[C@H](CC(=O)O)NC(=O)[C@H](CCC(N)=O)NC(=O)[C@@H](NC(=O)[C@H](CCC(=O)O)NC(=O)[C@@H]1CCCN1C(=O)[C@H](CCC(=O)O)NC(=O)[C@@H](N)CS)[C@@H](C)O)[C@@H](C)O)C(=O)O	62.1		
CC(C)C[C@H](NC(=O)CNC(=O)[C@H](CC(C)C)NC(=O)[C@H](C)NC(=O)[C@H](CCC(=O)O)NC(=O)CNC(=O)[C@H](CCCNC(=N)N)NC(=O)[C@H](C)NC(=O)[C@H](CCC(=O)O)NC(=O)[C@@H](N)CC(C)C)C(=O)O	0.964		
CC(C)C[C@H](NC(=O)[C@H](CC(C)C)NC(=O)[C@H](CC(N)=O)NC(=O)CNC(=O)[C@H](CO)NC(=O)[C@H](CO)NC(=O)[C@H](CC(=O)O)NC(=O)[C@H](CCC(=O)O)NC(=O)[C@@H](N)CC(C)C)C(=O)O	26.1	4.66	
CC[C@H](C)[C@H](NC(=O)[C@H](CCC(=O)O)NC(=O)[C@H](CCC(=O)O)NC(=O)[C@@H](N)CC(C)C)C(=O)N[C@H](C(=O)NCC(=O)N[C@@H](Cc1ccc(O)cc1)C(=O)N[C@@H](CC(C)C)C(=O)O)[C@@H](C)O	35.5	5.91	
CC[C@H](C)[C@H](NC(=O)[C@H](CO)NC(=O)[C@H](CC(=O)O)NC(=O)[C@H](CCC(=O)O)NC(=O)[C@H](CCCNC(=N)N)NC(=O)CNC(=O)[C@H](CCC(=O)O)NC(=O)[C@H](Cc1ccccc1)NC(=O)[C@@H](NC(=O)[C@H](CCC(=O)O)NC(=O)[C@@H](N)CC(C)C)C(C)C)C(=O)O	> 31	21	
CC(C)C[C@H](NC(=O)[C@@H]1CCCN1C(=O)[C@H](CO)NC(=O)[C@H](CC(C)C)NC(=O)[C@@H](NC(=O)[C@H](CC(N)=O)NC(=O)[C@H](CC(N)=O)NC(=O)[C@H](CCC(=O)O)NC(=O)[C@@H]1CCCN1)C(C)C)C(=O)O	> 27.1		
CSCC[C@H](NC(=O)[C@H](CC(=O)O)NC(=O)[C@H](CC(C)C)NC(=O)[C@H](Cc1c[nH]cn1)NC(=O)[C@@H](NC(=O)[C@H](CCC(=O)O)NC(=O)[C@@H]1CCCN1)[C@@H](C)O)C(=O)N[C@@H](CC(C)C)C(=O)O	20.3	> 17.5	
CC[C@H](C)[C@H](NC(=O)[C@H](CC(C)C)NC(=O)[C@H](C)NC(=O)[C@H](CC(C)C)NC(=O)CNC(=O)[C@H](CO)NC(=O)CNC(=O)[C@H](CC(C)C)NC(=O)[C@H](CCC(=O)O)NC(=O)[C@@H](N)CCCNC(=N)N)C(=O)O	0.173		
CC(C)[C@H](N)C(=O)N[C@@H](CCC(=O)O)C(=O)N[C@@H](CC(=O)O)C(=O)N[C@@H](CCCCN)C(=O)N[C@@H](CC(=O)O)C(=O)N[C@@H](C)C(=O)N[C@H](C(=O)N[C@@H](C)C(=O)N[C@@H](Cc1ccccc1)C(=O)O)C(C)C	21.2	1.66	
CC(C)C[C@H](NC(=O)[C@@H](NC(=O)[C@H](CCCNC(=N)N)NC(=O)[C@H](CS)NC(=O)[C@H](CCC(=O)O)NC(=O)[C@H](CCC(=O)O)NC(=O)[C@@H](N)C(C)C)C(C)C)C(=O)N[C@@H](CCC(N)=O)C(=O)NCC(=O)O	20.1	14.2	
CSCC[C@H](NC(=O)[C@H](C)NC(=O)CNC(=O)[C@H](CO)NC(=O)[C@@H]1CCCN1C(=O)[C@@H](NC(=O)[C@H](CC(C)C)NC(=O)[C@@H]1CCCN1C(=O)[C@H](CCC(=O)O)NC(=O)[C@@H](N)C(C)C)[C@@H](C)O)C(=O)O	20.2		
CC[C@H](C)[C@H](NC(=O)[C@H](Cc1c[nH]cn1)NC(=O)[C@@H]1CCCN1C(=O)[C@H](CCC(=O)O)NC(=O)CN)C(=O)N[C@@H](CO)C(=O)N[C@@H](Cc1ccc(O)cc1)C(=O)O [GEPHISY]	> 33.3	36.1	
CC(C)C[C@H](NC(=O)[C@@H]1CCCN1C(=O)[C@H](CCC(=O)O)NC(=O)[C@@H](NC(=O)[C@H](CC(C)C)NC(=O)[C@H](CCC(=O)O)NC(=O)[C@@H](N)[C@@H](C)O)C(C)C)C(=O)O [TELVEPL]	> 148		
CEKCSKPCARVCY			1.31
CELHCPAL			30.1

Like-named read-outs stand apart in the source and are kept apart here.
